The values below are quoted from earlier work in US11608532B2, “Precision medicine for treating and preventing suicidality” (Indiana University Research and Technology Corporation, priority 2017, dated 2023).

Read-outs that look alike come from different tables or passages of the source.

In this series the test system is individual top biomarkers for suicidality. The note with it: for HTR2A modulated by drug in opposite direction to suicide: DE/2.
Where [1] appears, read: A. Top Universal Biomarkers, direction of change in suicidality (I).
The mark [2] stands for this setting: C. Top Biomarkers in Females, direction of change in suicidality I.
Where [3] appears, read: D. Top Biomarkers in Bipolar Disorder, direction of change in suicidality (I).
Where [4] appears, read: F. Top Biomarkers in Males with Bipolar Disorder, direction of change in suicidality (I).

`OCCOCCN1CCN(C2=Nc3ccccc3Sc3ccccc32)CC1` [quetiapine]: the “HTR2A modulated by drug in opposite direction to suicide” value (“HTR2A modulated by drug” for short) runs as follows: under setting [1], “quetiapine,”; under setting [2], “quetiapine,”; under setting [3], “quetiapine,”; under setting [4], “quetiapine,”.

Consider `CN(C)CCC=C1c2ccccc2CCc2ccccc21` [amitriptyline], for which the “HTR2A modulated by drug” value is, setting by setting: under setting [1], “amitriptyline”; under setting [2], “amitriptyline”; under setting [3], “amitriptyline”; under setting [4], “amitriptyline”.

Regarding `O=C(CCCN1CCC(O)(c2ccc(Cl)cc2)CC1)c1ccc(F)cc1` [haloperidol, reference compound], the “HTR2A modulated by drug” value reads like this: under setting [1], “Haloperidol”; under setting [2], “Haloperidol”; under setting [3], “Haloperidol”; under setting [4], “Haloperidol”.

`O=C1CC2(CCCC2)CC(=O)N1CCCCN1CCN(c2ncccn2)CC1` [Buspirone]: the “HTR2A modulated by drug” value by setting is: under setting [1], “Buspirone,”; under setting [2], “Buspirone,”; under setting [3], “Buspirone,”; under setting [4], “Buspirone,”.

As to `CNCCC(Oc1ccc(C(F)(F)F)cc1)c1ccccc1` (stereo not drawn) [Fluoxetine], the “SLC6A4 modulated by drug in opposite direction to suicide” value (D. Top Biomarkers in Bipolar Disorder, direction of change in suicidality (D), DE/1) was “Fluoxetine”.

As for `Cc1nc2n(c(=O)c1CCN1CCC(c3noc4cc(F)ccc34)CC1)CCCC2` [Risperidone], the “HTR2A modulated by drug” value is, setting by setting: under setting [1], “Risperidone,”; under setting [2], “Risperidone,”; under setting [3], “Risperidone,”; under setting [4], “Risperidone,”.
